This is a selection; strong and weak results do not stand in their true shares. Some results for these compounds are left out of this collection, so the calls shown say nothing about other tests. Activity calls are given as the source filed them.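 Rule for the calls: active = drop in luminescence signal, shown as inhibition above about 50% in the replicate tests (limit read from the data, passing the limit was not always enough); inconclusive = probably only some replicates passing the limit; inactive = the rest.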
The compounds below were run on Drosophila bursicon receptor LGR2 (rickets) (assay: LGR2 cAMP reporter signal reduction – cell-based, HEK293, CRE-luciferase reporter, bursicon stimulation, primary screen (AID 720647;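 note: agonist challenge used bursicon conditioned medium at about half maximal strength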)). Conditions: bursicon-stimulated, 4 h, at 9.99 µM, hits give high values.

| Compound | inhibition |
| --- | --- |
| CC(C)N1C(=O)CC2(CCN(CCOC(=O)C(O)(c3ccccc3)c3ccccc3)CC2)C1=O | inactive: -12.5% |
| CCN(CC)CC(C)C(C)OC(=O)C(O)(c1ccccc1)c1ccccc1 (stereo not drawn) | inactive: 14.7% |
| COc1cc(SC)ccc1C(=O)NCC1(N(C)C)CCCCC1 | inactive: 0.373% |
| Cc1ccc(C(=O)NCC2(N3CCCCC3)CCCCC2)cc1 | inactive: -3.85% |
| O=C(NCC1(N2CCCCC2)CCCCC1)c1cc([N+](=O)[O-])ccc1Cl | inactive: -10.5% |
| CN1[C@@H]2CC[C@H]1CC(OC(=O)C(O)(c1ccccc1)c1ccccc1)C2 (stereo partly drawn) | inactive: 14.6% |
| C=CCN1CCN(CCOC(=O)C(O)(c2ccccc2)c2ccccc2)CC1 | inactive: 10.5% |
| O=C(NCC1(N2CCCCC2)CCCCC1)c1cc(F)c(F)cc1Cl | inactive: 12.3% |
| CCN1CCCC(OC(=O)C2(O)c3ccccc3C=Cc3ccccc32)C1 (stereo not drawn) | inactive: -12% |
| Cc1cc(C(=O)NCC2(N3CCCCC3)CCCCC2)ccc1[N+](=O)[O-] | inactive: -2.32% |
| O=C(NCC1(N2CCCCC2)CCCCC1)c1cccc(Br)c1 | inactive: 1.59% |
| COc1ccc(C(=O)NCC2(N(C)C)CCCCC2)cc1 | inactive: -4.5% |
| Cc1ccccc1C(=O)NCC1(N2CCCCC2)CCCCC1 | inactive: 11.4% |
| CN(C)c1ccc(C(=O)NCC2(N(C)C)CCCCC2)cc1 | inactive: -25.5% |
| CN(C)C1CCCC1OC(=O)C(O)(c1ccccc1)c1ccccc1 (stereo not drawn) | inactive: -6.92% |
| COc1cccc(C(=O)NCC2(N3CCCCC3)CCCCC2)c1 | inactive: 8.3% |
| COc1ccc(Cl)cc1C(=O)NCC1(N(C)C)CCCCC1 | inactive: -5.88% |
| O=C(NCC1(N2CCCCC2)CCCCC1)c1cccc(Cl)c1 | inactive: 14% |
| CN(C)C1(CNC(=O)c2ccc(Br)cc2)CCCCC1 | inactive: 9.08% |
| COc1cc(C(=O)NCC2(N(C)C)CCCCC2)c([N+](=O)[O-])cc1OC | inactive: -3.32% |
| COc1ccc(Br)c(C(=O)NCC2(N3CCCCC3)CCCCC2)c1 | inactive: 7.47% |
| CC(C)Oc1ccc(C(=O)NCC2(N(C)C)CCCCC2)cc1 | inactive: -3.43% |
| O=C(OCCN1CCCC1)C(O)(c1ccccc1)c1ccccc1 | inactive: -0.955% |
